AlphaSeq binding of Ab-14 light chain variants to a spike HR2 peptide

The target is the same throughout: PDVDLGDISGINAS, from the HR2 region of SARS-CoV-2 spike.

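The parent was found by panning a naive human phage display library on the peptide. In library AAYL50, one, two or three CDR residues were substituted; doubles and triples were drawn at random. The assay is AlphaSeq: two haploid yeast populations carry antibody and antigen on their surface. Binding brings cells together so that they mate, and sequencing counts the barcode pairs among the diploids. Each replicate has its own calibration line, from reference interactions of the BCL2 family. Each pool was mated in three replicate cultures.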

Parent scFv Ab-14: VH joined to VL by a 15-residue (Gly4Ser)3 linker. Changes lie in the light chain CDRs alone.
VH: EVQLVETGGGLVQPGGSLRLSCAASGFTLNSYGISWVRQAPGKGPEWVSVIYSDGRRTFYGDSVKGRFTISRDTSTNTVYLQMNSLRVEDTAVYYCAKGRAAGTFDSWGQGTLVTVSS
VL: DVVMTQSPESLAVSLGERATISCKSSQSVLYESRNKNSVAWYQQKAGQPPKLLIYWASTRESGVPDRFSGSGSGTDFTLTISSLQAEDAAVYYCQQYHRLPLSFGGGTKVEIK

Positions count from residue 1 of the parent VL; W56P puts P in place of W.
Scale: log10 of Kd in nM, estimated from mating counts; low values are strong binders.
A mean of the replicates is given; it leaves out those without a signal.
Where no diploid with the target was found in that replicate, the entry reads "n.d.": below detection, most likely a poor binder, though not proof of it.
In this assay the parent's reference entry averaged 0.65; its copy inside this library read 1.68.
As a blank, each scFv also met three strains without target: over library AAYL50, 18% of these pairings were detected, typically at 4.19 and seldom below 2.99. For each scFv, signals with the empty controls are counted beside the result, with their mean in brackets.

changes | log10 Kd (nM) by replicate | mean log10 Kd (nM) | signal with controls
W56P+E61S+L102V | n.d. / n.d. / n.d. | n.d. | 1/9 (3.07)
S25F+V29D | 0.28 / 0.57 / 0.49 | 0.45 | 5/9 (4.31)
A40C+R60P+Y97D | n.d. / 3.91 / 4.57 | 4.24 | 4/9 (4.41)
S26I+L30D+E32V | 2.17 / 2.04 / 2.18 | 2.13 | 0/9
E32I+R34D+V39L | 1.28 / 1.18 / 1.26 | 1.24 | 0/9
V29L+V39F+W56H | 0.37 / 0.67 / 0.51 | 0.52 | 3/9 (4.56)
E32D+Y97V+H98W | n.d. / n.d. / n.d. | n.d. | 0/9
S33K+Q95V | n.d. / n.d. / n.d. | n.d. | 0/9
S26K+N37A+S58R | 3.39 / 3.57 / 4.57 | 3.84 | 2/9 (4.91)
V29I+A57M | 1.90 / 1.87 / 1.95 | 1.91 | 3/9 (4.43)
T59P | n.d. / n.d. / n.d. | n.d. | 3/9 (4.15)
K24G+Q95W+L102V | n.d. / n.d. / n.d. | n.d. | 0/9
Q27D+S58T+Q95I | n.d. / n.d. / n.d. | n.d. | 1/9 (3.30)
V39Q+R60F+S62M | n.d. / n.d. / n.d. | n.d. | 1/9 (3.57)
N35P+S38K+T59V | 4.32 / 3.13 / 3.27 | 3.57 | 1/9 (4.32)
S25M+S26Q+L30N | -0.13 / 0.27 / -0.02 | 0.04 | 1/9 (3.59)
S28T+L100W+P101F | 6.41 / 3.77 / 5.21 | 5.13 | 5/9 (4.71)
Q27D+L100I | n.d. / n.d. / n.d. | n.d. | 1/9 (3.33)
S28M+L30F+S38F | n.d. / n.d. / n.d. | n.d. | 0/9
A40D+E61F+Q95K | n.d. / n.d. / n.d. | n.d. | 0/9
V39W+Q96G+L100Y | n.d. / n.d. / n.d. | n.d. | 0/9
V29M+V39G+S103K | 2.69 / n.d. / n.d. | 2.69 | 1/9 (2.54)
S58P+T59N+R99N | 2.03 / 1.60 / n.d. | 1.81 | 0/9
R34F+S38F | n.d. / 4.79 / n.d. | 4.79 | 0/9
S28E+R34M+N37R | 1.13 / 1.17 / 1.48 | 1.26 | 1/9 (3.89)
E32F+S33V+W56I | n.d. / n.d. / 4.42 | 4.42 | 2/9 (4.97)
V39W+H98Q+S103G | n.d. / n.d. / 3.56 | 3.56 | 1/9 (2.92)
S26W+E61L | 1.73 / 1.50 / 1.52 | 1.58 | 2/9 (3.62)
Q27L+A40K+R99H | n.d. / n.d. / n.d. | n.d. | 1/9 (3.03)
Q27N+Y31F+S58P | 3.75 / n.d. / 5.60 | 4.67 | 2/9 (4.74)
S25L+V29L+Q95K | -0.03 / 0.50 / 0.09 | 0.18 | 0/9
T59D+Q95V+S103D | 4.53 / n.d. / n.d. | 4.53 | 3/9 (3.86)
N37L+Q95K+Q96C | 2.76 / 2.28 / 3.42 | 2.82 | 3/9 (3.52)
V39P+A57Y+P101G | 3.22 / n.d. / n.d. | 3.22 | 4/9 (4.20)
K36G+S103A | 1.23 / 1.95 / 1.55 | 1.58 | 0/9
N35R+P101S+L102E | 1.08 / 1.52 / 1.47 | 1.36 | 2/9 (3.69)
Y31M+Q96R+R99Q | n.d. / n.d. / n.d. | n.d. | 2/9 (3.26)
S26H+E32D+S38Y | 1.86 / 1.77 / 2.26 | 1.96 | 2/9 (4.00)
S26H+T59W+S62K | 1.76 / 2.08 / 2.08 | 1.97 | 4/9 (4.37)
S26Y+S28C+H98S | 3.49 / 3.59 / 3.87 | 3.65 | 1/9 (4.71)
L30F+S33E+H98K | 0.01 / 0.45 / 0.27 | 0.24 | 0/9
E32A+K36F+E61Q | n.d. / 1.35 / n.d. | 1.35 | 0/9
V29S+T59P+S62A | 4.22 / 4.08 / 6.25 | 4.85 | 3/9 (4.28)
E32F+K36L | 2.14 / 1.87 / 1.69 | 1.90 | 1/9 (3.77)
S33G+Q96M+Y97L | 5.51 / n.d. / n.d. | 5.51 | 3/9 (3.38)
S33W+T59C+P101T | 2.62 / 1.94 / 2.24 | 2.27 | 1/9 (4.95)
K24H+N35F+T59S | 1.83 / 1.95 / 2.13 | 1.97 | 3/9 (5.08)
L30Q+V39R+A57K | 5.17 / 5.16 / n.d. | 5.16 | 0/9
R34G+S38P | 0.33 / 0.51 / 0.36 | 0.40 | 2/9 (5.48)
L30G+T59A+S103R | 1.81 / 2.08 / 1.55 | 1.81 | 0/9
N37H+T59M | 2.14 / 3.30 / 2.92 | 2.79 | 0/9

The 4 strongest on average among those seen in every replicate, once more:

changes	log10 Kd (nM) by replicate	mean log10 Kd (nM)	signal with controls
S25M+S26Q+L30N	-0.13 / 0.27 / -0.02	0.04	1/9 (3.59)
S25L+V29L+Q95K	-0.03 / 0.50 / 0.09	0.18	0/9
L30F+S33E+H98K	0.01 / 0.45 / 0.27	0.24	0/9
R34G+S38P	0.33 / 0.51 / 0.36	0.40	2/9 (5.48)

Reference: Engelhart et al. 2022, doi:10.1038/s41597-022-01779-4. File: FLAb, binding data.